Results published in PubChem BioAssay AID886 (National Center for Advancing Translational Sciences (NCATS), 2007).
The list shows a part of the results, in another mix than the full data. Inconclusive results are not listed. Activity calls are given as the source filed them. The call rests on the fitted dose curve; in most records, active means well fitted inhibition curve with a large enough effect; inconclusive means small, poorly fitted or top-dose-only effect; inactive means no such curve, though single readings can be large or run the other way.

The chains behind the UniProt entries cited, without tags or fusion partners. Where a name states a change or a piece, a line headed by the entry shows the natural chain unless it says otherwise.
UniProt Q99714: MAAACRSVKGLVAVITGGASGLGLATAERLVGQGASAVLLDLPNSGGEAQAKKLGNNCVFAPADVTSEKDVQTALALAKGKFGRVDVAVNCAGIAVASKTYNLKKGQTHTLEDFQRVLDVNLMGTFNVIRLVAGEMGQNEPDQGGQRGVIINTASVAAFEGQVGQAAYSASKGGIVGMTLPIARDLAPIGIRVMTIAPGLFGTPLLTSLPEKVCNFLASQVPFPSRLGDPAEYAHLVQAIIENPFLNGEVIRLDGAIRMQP

The compounds below were run against 3-hydroxyacyl-CoA dehydrogenase type-2 (Homo sapiens) (UniProt Q99714) (assay: qHTS Assay for Inhibitors of HADH2 (Hydroxyacyl-Coenzyme A Dehydrogenase, Type II)). Conditions: recombinant HADH2, NADH fluorescence, beta-hydroxybutyryl-CoA.
Text: Assay Overview: NIH Molecular Libraries Screening Centers Network [MLSCN] NIH Chemical Genomics Center [NCGC] Structural Genomics Consortium [SGC] Grant Number: None HADH2: Hydroxyacyl-Coenzyme A dehydrogenase, type II, was supplied by researchers at the Structural Genomics Consortium, Oxford University lab (PI Udo Oppermann). The mitochondrial enzyme 17-hydroxysteroid dehydrogenase type 10 (HSD17-10) previously classified as type II hydroxyacyl-CoA dehydrogenase (HADH2) catalyzes the NAD+ dependent oxidation of a variety of substrates including acyl-CoAs, androgens and neurosteroids as well as bile acids(Shafqat N, Marschall HU, Filling C, et al. Biochemical Journal. 2003;376(Pt 1):49-60). […] An increase in the fluorescence intensity due to conversion of NAD+ to NADH was used to measure the enzyme activity.
Assay Protocol: Buffer: 100 mM Tris-HCl pH 9.0, containing 0.01 % Tween-20. […] The plates were immediately transferred to and read every 30 seconds for 4 min on ViewLux High-throughput CCD imager (Perkin-Elmer) using 360 nm excitation and 450 nm emission fluorescence protocol. The fluorescence intensity difference between the last and the first time points was used to compute reaction progress.
Further: nearly all actives have a fitted effect of over 60% in size.
Potency means the concentration at half of the fitted maximal effect.

Row | SMILES | Potency
1 | COC(=O)c1cccc(C(=O)Nc2cnc3ccccc3c2)n1 | active: 31.6 µM
